The values below come from paper PMC5793130, “The Peptide PnPP-19, a Spider Toxin Derivative, Activates μ-Opioid Receptors and Modulates Calcium Channels” (Toxins, 2018).

In the experiment the test system is human μ-opioid receptor (hMOR). Briefly: Two-microelectrode voltage-clamp of opioid receptor-activated GIRK1/GIRK2 current in oocytes expressing hMOR. Type of experiment: cell-based. Conditions: X. laevis oocytes co-expressing GIRK1/GIRK2, RGS4 and hMOR; −70 mV; HK solution; room temperature; morphine 1 μM, PnPP-19 1 or 10 μM.

For the compound `CN1CC[C@]23c4c5ccc(O)c4O[C@H]2[C@@H](O)C=C[C@H]3[C@H]1C5` [morphine], the “activation of hMOR (agonist-gated GIRK1/GIRK2 inward K+ current)” value is “agonist-gated currents evoked”.
